Experiments:
[1] = target: αβγT81C (α1β2γ2 GABAA receptor mutant) (Rattus norvegicus, UniProt P18508+P62813, INS375LLRMFSFK/T119C); details: γ2T81C compared to WT
[2] = target: αβγM130C (α1β2γ2 GABAA receptor mutant) (Rattus norvegicus, UniProt P18508+P62813, INS375LLRMFSFK/M168C); details: γ2M130C compared to WT
[3] = target: αβγR132C (α1β2γ2 GABAA receptor mutant) (Rattus norvegicus, UniProt P18508+P62813, INS375LLRMFSFK/R170C); details: γ2R132C compared to WT
[4] = target: αF99Cβγ (α1β2γ2 GABAA receptor mutant) (Rattus norvegicus, UniProt P18508+P62813, F126C/INS375LLRMFSFK); details: α1F99C compared to WT
[5] = target: αβχ161 (γ2/α1 chimeric subunit χ161 with WT α1 and β2 subunits) (Rattus norvegicus, UniProt P18508+P62813); details: cited from earlier work

The chains behind the UniProt entries cited, without tags or fusion partners. Residues count along the entry.
UniProt P18508, 39-199, stated change not applied: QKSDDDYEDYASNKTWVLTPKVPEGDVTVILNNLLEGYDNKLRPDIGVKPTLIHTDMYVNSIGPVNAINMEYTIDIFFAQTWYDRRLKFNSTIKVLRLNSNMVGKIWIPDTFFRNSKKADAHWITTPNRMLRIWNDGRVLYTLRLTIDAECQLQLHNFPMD
UniProt P62813, 28-455, stated change not applied: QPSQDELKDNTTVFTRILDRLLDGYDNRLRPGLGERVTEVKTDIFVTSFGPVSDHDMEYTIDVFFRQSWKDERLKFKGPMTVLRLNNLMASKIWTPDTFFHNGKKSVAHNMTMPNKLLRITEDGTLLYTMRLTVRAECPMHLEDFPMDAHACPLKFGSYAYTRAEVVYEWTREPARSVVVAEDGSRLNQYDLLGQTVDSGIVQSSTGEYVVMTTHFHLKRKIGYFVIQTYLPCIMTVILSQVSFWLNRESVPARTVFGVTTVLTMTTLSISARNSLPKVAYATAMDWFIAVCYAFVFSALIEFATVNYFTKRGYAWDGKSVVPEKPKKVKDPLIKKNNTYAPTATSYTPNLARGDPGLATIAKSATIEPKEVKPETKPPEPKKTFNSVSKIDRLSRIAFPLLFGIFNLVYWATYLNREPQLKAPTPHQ
UniProt P62813, 28-455 F126C: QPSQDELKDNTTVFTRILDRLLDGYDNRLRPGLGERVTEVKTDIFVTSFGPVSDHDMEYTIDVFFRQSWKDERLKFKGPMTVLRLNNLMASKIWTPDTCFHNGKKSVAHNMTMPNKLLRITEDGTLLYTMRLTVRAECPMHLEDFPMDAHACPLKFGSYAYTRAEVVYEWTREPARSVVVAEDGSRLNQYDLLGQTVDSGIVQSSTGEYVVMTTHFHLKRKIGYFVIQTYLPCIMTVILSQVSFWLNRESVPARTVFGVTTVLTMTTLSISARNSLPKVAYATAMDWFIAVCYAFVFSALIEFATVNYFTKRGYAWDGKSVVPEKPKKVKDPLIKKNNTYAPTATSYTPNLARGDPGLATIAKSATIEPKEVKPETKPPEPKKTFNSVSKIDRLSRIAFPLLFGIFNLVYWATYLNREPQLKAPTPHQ

Compound	effect on affinity [1] [fold]	increase in affinity [2]	increase in affinity [3]	reduction in affinity [4] [fold]	binding affinity relative to WT [5]
Cc1ccc(-c2nc3ccc(C)cn3c2CC(=O)N(C)C)cc1 [Zolpidem, zolpidem]	< 2	2-4 fold	2-4 fold	~3	
CN1C(=O)CN=C(c2ccccc2F)c2cc([N+](=O)[O-])ccc21 [flunitrazepam]					retained WT binding affinity
